According to ChEMBL document CHEMBL4038300, “Return of D4 Dopamine Receptor Antagonists in Drug Discovery” (J Med Chem, 2017):

Molecular target: Sigma non-opioid intracellular receptor 1 (Homo sapiens, UniProt Q99720)
Experiment: Inhibition of sigma1 receptor (unknown origin)

CC(C)Oc1cccnc1N(C)C1CCN(Cc2ccc(I)cc2)CC1 gave a Ki of 82.1 nM.
